{
  "sequences": {"note": "Chains of the proteins cited; added tags and fusions are not shown. Residues count along the entry.", "UniProt P29317, 24-537": "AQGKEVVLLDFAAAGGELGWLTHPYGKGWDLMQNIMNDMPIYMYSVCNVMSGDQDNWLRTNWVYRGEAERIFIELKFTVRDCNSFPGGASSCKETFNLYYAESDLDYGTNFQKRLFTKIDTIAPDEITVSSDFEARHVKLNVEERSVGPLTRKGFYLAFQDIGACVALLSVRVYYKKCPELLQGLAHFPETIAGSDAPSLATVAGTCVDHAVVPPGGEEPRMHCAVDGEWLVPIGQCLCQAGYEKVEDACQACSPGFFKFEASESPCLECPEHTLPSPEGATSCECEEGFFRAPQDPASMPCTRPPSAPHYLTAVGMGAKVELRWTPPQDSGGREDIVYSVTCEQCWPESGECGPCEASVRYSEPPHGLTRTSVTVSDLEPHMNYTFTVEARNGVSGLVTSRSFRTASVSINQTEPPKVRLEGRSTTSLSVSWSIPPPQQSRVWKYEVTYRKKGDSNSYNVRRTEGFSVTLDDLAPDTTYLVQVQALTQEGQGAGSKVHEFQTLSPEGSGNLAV"},
  "source": "patent US11814447B2",
  "about": "“Peptide ligands for binding to EphA2” (BICYCLERD LIMITED, priority 2018, dated 2023)",
  "key": {"Human EphA2 (Ecto) [1]": {"molecular_target": "T1, Human EphA2 (Ecto) (Human, UniProt P29317 24-537)", "T1 construct": "extracellular domain", "assay": "FP competition, tracer Compound 66"}, "[2]": {"molecular_target": "T2, Human EphA2 (Ecto), C-terminal polyHis (Human, UniProt P29317 24-537)", "T2 construct": "extracellular domain; also called EPH receptor A2; ephrin type-A receptor 2", "assay": "fluorescence polarisation competition; competitor fluorescent Compound 66"}, "Human EphA2 (Ecto) [3]": {"molecular_target": "T3, Human EphA2 (Ecto) (Human, UniProt P29317 24-537)", "T3 construct": "extracellular domain; in-house)", "assay": "FP competition; tracer Reference Compound C"}, "[4]": {"molecular_target": "T2, Human EphA2 (Ecto), C-terminal polyHis", "assay": "fluorescence polarisation competition; competitor fluorescent Compound 1"}, "[5]": {"molecular_target": "T2, Human EphA2 (Ecto), C-terminal polyHis", "assay": "fluorescence polarisation competition; competitor fluorescent Compound 12"}, "[6]": {"molecular_target": "T2, Human EphA2 (Ecto), C-terminal polyHis", "assay": "fluorescence polarisation competition; competitor fluorescent Compound 18"}},
  "data": [
    {"binder": "CANDWLCSLGWTC (Ac-CANDWLCSLGWTC; 3 Cys on TBMB)", "note": "[Bicycle Compound 25]", "values": [
      {"measurement": "Ki", "setting": "Human EphA2 (Ecto) [1]", "value": 328, "unit": "nM"}
    ]},
    {"binder": "CMNDWLCALGWTC (Ac-CMNDWLCALGWTC; 3 Cys on TBMB)", "note": "[Bicycle Compound 26]", "values": [
      {"measurement": "Ki", "setting": "Human EphA2 (Ecto) [1]", "value": 71.6, "unit": "nM"}
    ]},
    {"binder": "CMNDWLCSAGWTC (Ac-CMNDWLCSAGWTC; 3 Cys on TBMB)", "note": "[Bicycle Compound 27]", "values": [
      {"measurement": "Ki", "setting": "Human EphA2 (Ecto) [1]", "value": 356, "unit": "nM"}
    ]},
    {"binder": "CANDWLCSLGWTC (N-terminal Ac; 3 Cys thioether-linked to TBMB scaffold, also called Compound 25)", "note": "[Bicycle Compound Number 25 (TBMB scaffold)]", "values": [
      {"measurement": "Ki", "setting": "[2]", "value": 328, "unit": "nM"}
    ]},
    {"binder": "CMNDWLCALGWTC (N-terminal Ac; 3 Cys thioether-linked to TBMB scaffold, also called Compound 26)", "note": "[Bicycle Compound Number 26 (TBMB scaffold)]", "values": [
      {"measurement": "Ki", "setting": "[2]", "value": 71.6, "unit": "nM"}
    ]},
    {"binder": "CMNDWLCSAGWTC (N-terminal Ac; 3 Cys thioether-linked to TBMB scaffold, also called Compound 27)", "note": "[Bicycle Compound Number 27 (TBMB scaffold)]", "values": [
      {"measurement": "Ki", "setting": "[2]", "value": 356, "unit": "nM"}
    ]},
    {"binder": "GQVCIVDARCAYMNVCA (3 Cys thioether-linked to TATA scaffold)", "note": "[Bicycle Compound Number 24 (TATA scaffold), GQVCIVDARCAYMNVCA]", "values": [
      {"measurement": "Ki", "setting": "Human EphA2 (Ecto) [3]", "value": 168, "unit": "nM"}
    ]},
    {"binder": "ACQPSNHCAFMNYCA (3 Cys thioether-linked to TATA scaffold)", "note": "[Bicycle Compound Number 30 (TATA scaffold), ACQPSNHCAFMNYCA]", "values": [
      {"measurement": "Ki", "setting": "Human EphA2 (Ecto) [3]", "value": 293, "unit": "nM"}
    ]},
    {"binder": "ACRVYGPYCAYPDTICA (3 Cys thioether-linked to TATA scaffold)", "note": "[Bicycle Compound Number 37 (TATA scaffold), ACRVYGPYCAYPDTICA]", "values": [
      {"measurement": "Ki", "setting": "Human EphA2 (Ecto) [3]", "value": 294, "unit": "nM"}
    ]},
    {"binder": "ACGFMGLEPCELYCA (3 Cys thioether-linked to TATA scaffold)", "note": "[Bicycle Compound Number 48 (TATA scaffold), ACGFMGLEPCELYCA]", "values": [
      {"measurement": "Ki", "setting": "Human EphA2 (Ecto) [3]", "value": 128, "unit": "nM"}
    ]},
    {"binder": "KHSCPLVNPLCLHPGWTCA (3 Cys thioether-linked to TATA scaffold)", "note": "[Bicycle Compound Number 72 (TATA scaffold), KHSCPLVNPLCLHPGWTCA]", "values": [
      {"measurement": "Ki", "setting": "Human EphA2 (Ecto) [3]", "value": 11.9, "unit": "nM"}
    ]},
    {"binder": "ACPLVNPLCLHPGWTCLHG (3 Cys thioether-linked to TATA scaffold)", "note": "[Bicycle Compound Number 73 (TATA scaffold), ACPLVNPLCLHPGWTCLHG]", "values": [
      {"measurement": "Ki", "setting": "Human EphA2 (Ecto) [3]", "value": 1.98, "unit": "nM"}
    ]},
    {"binder": "ACPMVNPLCLHPGWKCA (3 Cys thioether-linked to TATA scaffold)", "note": "[Bicycle Compound Number 95 (TATA scaffold), ACPMVNPLCLHPGWKCA]", "values": [
      {"measurement": "Ki", "setting": "Human EphA2 (Ecto) [3]", "value": 11.9, "unit": "nM"}
    ]},
    {"binder": "ACPMVNPLCLTPGWICA (3 Cys thioether-linked to TATA scaffold)", "note": "[Bicycle Compound Number 96 (TATA scaffold), ACPMVNPLCLTPGWICA]", "values": [
      {"measurement": "Ki", "setting": "Human EphA2 (Ecto) [3]", "value": 16.1, "unit": "nM"}
    ]},
    {"binder": "ACPWGPAWCPVNRPGCA (3 Cys thioether-linked to TBMB scaffold, also called Compound 44)", "note": "[Bicycle Compound Number 44 (TBMB scaffold)]", "values": [
      {"measurement": "Ki", "setting": "[4]", "value": 164, "unit": "nM"},
      {"measurement": "Ki", "setting": "[5]", "value": 128, "unit": "nM"}
    ]},
    {"binder": "ACPWGPAWCPVNRNGCA (3 Cys thioether-linked to TBMB scaffold, also called Compound 52)", "note": "[Bicycle Compound Number 52 (TBMB scaffold)]", "values": [
      {"measurement": "Ki", "setting": "[2]", "value": 168, "unit": "nM"}
    ]},
    {"binder": "ADHACPWGPFWCPVNRPGCA (3 Cys thioether-linked to TBMB scaffold, also called Compound 56)", "note": "[Bicycle Compound Number 56 (TBMB scaffold)]", "values": [
      {"measurement": "Ki", "setting": "[6]", "value": 14.4, "unit": "nM"}
    ]},
    {"binder": "ADVRTCPWGPFWCPVNRPGCA (3 Cys thioether-linked to TBMB scaffold, also called Compound 60)", "note": "[Bicycle Compound Number 60 (TBMB scaffold)]", "values": [
      {"measurement": "Ki", "setting": "[6]", "value": 12.6, "unit": "nM"},
      {"measurement": "Ki", "setting": "[2]", "value": 2.5, "unit": "nM"}
    ]},
    {"binder": "ARDDPCPWGPFWCPVNRPGCA (3 Cys thioether-linked to TBMB scaffold, also called Compound 62)", "note": "[Bicycle Compound Number 62 (TBMB scaffold)]", "values": [
      {"measurement": "Ki", "setting": "[6]", "value": 16.1, "unit": "nM"}
    ]},
    {"binder": "ACVPQGIWCALRYEPCA (3 Cys thioether-linked to TBMB scaffold, also called Compound 65)", "note": "[Bicycle Compound Number 65 (TBMB scaffold)]", "values": [
      {"measurement": "Ki", "setting": "[2]", "value": 293, "unit": "nM"}
    ]}
  ]
}
